{"source": "patent US10039761B2", "about": "“Co-crystals and pharmaceutical compositions comprising the same” (Vertex Pharmaceuticals Incorporated, priority 2013, dated 2018)", "test_system": "DU4475 breast cancer line", "assay": "Doxorubicin or epirubicin combination in DU4475 cells", "assay_type": "cell-based", "conditions": "drug in combination with Compound (2)", "protocol": "The cell-based experiments and assays were performed with either molecule but not always with both. Compounds (1) and (2) were generally very similar in those assays and experiments. Analysis of the combination experiments was performed using two methods: the Bliss Additivity model and the Mixtures Blend method to determine the degree of synergy, additivity, or antagonism. In the Bliss method, a matrix of Bliss scores was generated for each cell line and treatment, and a sum of the Bliss values over the range of combination concentrations tested was calculated. […] Larger average Bliss values indicate greater confidence in reporting synergy, and smaller scores indicate greater confidence in reporting antagonism. In the Mixtures Blend method combinants were added in a range of optimal ratios using design of experiment (DOE) software (DX-8 from STAT-EASE); the cells were irradiated with 2 Gy as required. Synergy was determined using statistical analysis of the data (ANOVA) to indicate linear (additivity) or statistically significant (p<0.1) non-linear (antagonism or synergy) mixes of the combinants.\nCombinations of Compound (2) and doxorubicin or epirubicin (DNA intercalator) were tested against breast cancer cell lines (Tables 17 and 18), with a comparison between wild-type and mutant lines being a focus of the study. […]", "data": [{"smiles": "COc1cccc2c1C(=O)c1c(O)c3c(c(O)c1C2=O)C[C@@](O)(C(=O)CO)C[C@@H]3O[C@H]1C[C@H](N)[C@@H](O)[C@H](C)O1", "note": "[Epirubicin]", "values": [{"measurement": "Average Bliss score", "result": 33.3}]}]}
